The supplement of paper PMC7840683

Test system: HepaRG
Assay: LDH release cytotoxicity, % of total lysis control; higher = more cytotoxic
Details: 48 h
Summary of the method: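 The CytoTox-ONE kit was used to read LDH in 50 µL spent medium as resorufin fluorescence on a Tecan Safire, with 0.1% Triton X added to total lysis wells. Beforehand, single-lot HepaRG cells on collagen I-coated 96-well plates had been exposed in duplicate for 48 h to eight-point half-log series (top 100 µM) in serum-free induction medium containing 0.5% DMSO. Percent cytotoxicity was normalized against on-plate vehicle and total lysis controls and averaged over duplicates.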

CCOc1nc(C(Cl)(Cl)Cl)ns1 [Etridiazole]
Details	LDH release cytotoxicity [%]
0.03162 µM	-0.0871
0.1 µM	-2.12
0.3162278 µM	-1.92
1 µM	-1.68
3.16228 µM	-1.93
10 µM	-1.17
31.6228 µM	-0.917
100 µM	0.377
